Reference: patent US9188584B2, “Capture agents and related compositions, methods and systems” (CALIFORNIA INSTITUTE OF TECHNOLOGY, priority 2008, dated 2015)

By UniProt entry, the sequences of proteins in these tests, tags left out.
UniProt P00921, whole entry: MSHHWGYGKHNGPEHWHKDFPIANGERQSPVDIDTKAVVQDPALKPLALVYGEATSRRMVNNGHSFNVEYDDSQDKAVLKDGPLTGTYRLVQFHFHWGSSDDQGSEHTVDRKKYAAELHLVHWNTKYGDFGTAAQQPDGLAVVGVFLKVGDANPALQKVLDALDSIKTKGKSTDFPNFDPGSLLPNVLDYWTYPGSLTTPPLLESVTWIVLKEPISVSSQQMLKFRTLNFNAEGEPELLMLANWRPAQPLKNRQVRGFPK

Target: T1, bCAII (Bos taurus, UniProt P00921)
T1 construct: The bCAII (C2522), from bovine erythrocytes, lyophilized powder; purchased Sigma-Aldrich C2522; host or cells: bovine erythrocytes
Assay: KD determination by surface plasmon resonance (SPR), immobilized bCAII
Parameters: species or system bovine
Conditions: biligand 2 nM to 5 μM, 1:1 binding fit; read-out: KD / binding affinity to bCAII by SPR
Description: KD determination by surface plasmon resonance (SPR).

Question: How did the pKd turn out when CC(=O)NC(CCCCn1cc(C[C@@H](NC(=O)[C@@H](CC(C)C)NC(=O)CNC(=O)[C@@H](Cc2c[nH]c3ccccc23)NC(=O)[C@@H](CC(C)C)NC(=O)[C@@H](Cc2c[nH]c3ccccc23)NC(=O)[C@H](N)CCCCN)C(=O)N2CCCCC2)nn1)C(=O)N[C@H](CCCCN)C(=O)N[C@H](Cc1ccccc1)C(=O)N[C@H](Cc1c[nH]c2ccccc12)C(=O)N[C@H](CC(C)C)C(=O)N[C@H](CCCCN)C(=O)N[C@H](CC(C)C)C(=O)O (stereo partly shown) [kwlwGl-Tz1-kfwlkl] was run?
Answer: The pKd was 5.52.

pKd: −log10 of the molar value.
